Target: hTRPV3 (Homo sapiens, UniProt Q8NET8)
Details: read-out: EC50 for activation of TRPV3

The chains behind the UniProt entries cited, without tags or fusion partners. Where a name states a change or a piece, a line headed by the entry shows the natural chain unless it says otherwise.
UniProt Q8NET8: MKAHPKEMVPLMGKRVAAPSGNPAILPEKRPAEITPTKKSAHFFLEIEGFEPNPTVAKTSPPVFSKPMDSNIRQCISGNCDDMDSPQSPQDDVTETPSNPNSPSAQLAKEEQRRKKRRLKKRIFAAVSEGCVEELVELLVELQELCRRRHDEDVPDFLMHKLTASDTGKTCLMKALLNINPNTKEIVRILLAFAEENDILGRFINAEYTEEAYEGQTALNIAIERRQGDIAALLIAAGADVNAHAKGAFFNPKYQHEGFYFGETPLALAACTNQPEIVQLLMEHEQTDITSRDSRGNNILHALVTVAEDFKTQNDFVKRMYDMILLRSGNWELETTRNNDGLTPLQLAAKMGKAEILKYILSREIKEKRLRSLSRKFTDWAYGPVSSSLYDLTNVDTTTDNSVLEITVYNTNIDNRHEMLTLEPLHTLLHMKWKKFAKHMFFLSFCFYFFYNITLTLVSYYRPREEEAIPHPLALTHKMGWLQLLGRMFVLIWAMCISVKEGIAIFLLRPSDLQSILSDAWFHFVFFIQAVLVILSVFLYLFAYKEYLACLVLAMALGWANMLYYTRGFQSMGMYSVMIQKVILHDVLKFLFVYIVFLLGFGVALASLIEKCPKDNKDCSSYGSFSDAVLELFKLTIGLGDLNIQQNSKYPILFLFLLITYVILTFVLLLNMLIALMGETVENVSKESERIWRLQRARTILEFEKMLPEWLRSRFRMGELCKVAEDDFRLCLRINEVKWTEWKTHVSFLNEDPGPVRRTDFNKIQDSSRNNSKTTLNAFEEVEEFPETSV

2-Aminoethoxydiphenyl borate [2-APB]
EC50: 61.1 ± 7.6 µM

Reference: article PMC3223389 (Frontiers in Pharmacology, 2011)
